Values joined by “and” are separate entries in the source; they are usually repeats but may differ in a detail not shown here. Equal values may be shown once.
System: LRI
Details: control PMN

HSA: pyrogen-free human serum albumin, coated on latex beads as control
attachment index (AI) of coated beads, beads bound by 100 PMN: 5 and 6
